Test results: ChEMBL document CHEMBL1157467, “Discovery of nonsteroidal 17beta-hydroxysteroid dehydrogenase 1 inhibitors by pharmacophore-based screening of virtual compound libraries” (J Med Chem, 2008)

Target: T1, 17-beta-hydroxysteroid dehydrogenase type 2 (Homo sapiens, UniProt P37059)
T1 sequence (P37059 whole entry): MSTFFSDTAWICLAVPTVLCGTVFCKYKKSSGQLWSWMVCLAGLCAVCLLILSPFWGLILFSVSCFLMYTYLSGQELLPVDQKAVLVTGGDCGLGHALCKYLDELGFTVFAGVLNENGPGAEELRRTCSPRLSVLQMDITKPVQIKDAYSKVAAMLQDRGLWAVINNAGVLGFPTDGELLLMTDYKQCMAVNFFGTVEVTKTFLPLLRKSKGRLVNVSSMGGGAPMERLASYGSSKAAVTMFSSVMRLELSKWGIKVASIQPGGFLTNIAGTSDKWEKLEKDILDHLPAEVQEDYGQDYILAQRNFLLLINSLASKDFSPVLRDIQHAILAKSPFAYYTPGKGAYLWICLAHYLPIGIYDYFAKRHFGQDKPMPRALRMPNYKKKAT
Assay: Inhibition of human recombinant 17beta-HSD2 expressed in HEK293 cell lysate assessed as conversion of radiolabeled estrone to estradiol
Type: cell-free

IC50: 16.5 µM
Compound: O=c1c(-c2ccc(O)cc2)coc2cc(O)cc(O)c12 [GENISTEIN]
